Test results: PMC2774619 (Current Chemical Genomics, 2008)
Like-named read-outs stand apart in the source and are kept apart here.

By UniProt entry, the sequences of proteins in these tests, tags left out. Where a name states a change or a piece, a line headed by the entry shows the natural chain unless it says otherwise.
UniProt P08482: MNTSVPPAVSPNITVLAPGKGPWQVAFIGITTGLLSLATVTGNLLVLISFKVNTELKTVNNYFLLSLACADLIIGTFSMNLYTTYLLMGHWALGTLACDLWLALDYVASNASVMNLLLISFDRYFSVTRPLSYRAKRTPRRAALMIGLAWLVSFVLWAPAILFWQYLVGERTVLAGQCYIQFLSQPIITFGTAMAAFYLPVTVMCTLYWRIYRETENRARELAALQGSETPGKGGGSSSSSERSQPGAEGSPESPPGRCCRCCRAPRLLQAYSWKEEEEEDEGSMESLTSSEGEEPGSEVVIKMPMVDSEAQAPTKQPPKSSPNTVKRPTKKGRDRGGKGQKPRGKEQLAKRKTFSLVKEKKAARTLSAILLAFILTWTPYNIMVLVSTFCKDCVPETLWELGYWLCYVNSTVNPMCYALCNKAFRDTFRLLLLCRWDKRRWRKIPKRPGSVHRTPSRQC
UniProt P12657: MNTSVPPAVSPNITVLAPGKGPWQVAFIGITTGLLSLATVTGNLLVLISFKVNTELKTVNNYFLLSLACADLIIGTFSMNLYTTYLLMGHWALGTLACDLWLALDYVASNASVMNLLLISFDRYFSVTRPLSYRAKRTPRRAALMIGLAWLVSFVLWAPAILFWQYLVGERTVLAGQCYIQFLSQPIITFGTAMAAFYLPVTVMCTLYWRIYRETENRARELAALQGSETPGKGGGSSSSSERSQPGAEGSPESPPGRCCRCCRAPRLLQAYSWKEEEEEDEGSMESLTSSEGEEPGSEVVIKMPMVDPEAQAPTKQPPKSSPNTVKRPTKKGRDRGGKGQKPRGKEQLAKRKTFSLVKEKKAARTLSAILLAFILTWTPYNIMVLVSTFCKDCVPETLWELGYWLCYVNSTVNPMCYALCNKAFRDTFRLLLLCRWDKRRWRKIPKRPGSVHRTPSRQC

Tests used:
[1] = biological target: T1, murine M1 muscarinic acetylcholine receptor (Rattus norvegicus, UniProt P08482); details: read-out: IC50, IP-One Assay
[2] = biological target: murine M1 muscarinic acetylcholine receptor (Mus musculus, UniProt P12657); details: read-out: IC50, Calcium Assay
[3] = biological target: T1, murine M1 muscarinic acetylcholine receptor; assay: cell-based; details: IC50, IP-One Assay

| Molecule | IC50 [1] [nM] | IC50 [2] [nM] | IC50 [3] [nM] |
| --- | --- | --- | --- |
| (-)-Scopolamine methyl nitrate | 1 | 12 | – |
| CC(C)[N+]1(C)[C@@H]2CC[C@H]1C[C@@H](OC(=O)C(CO)c1ccccc1)C2 (stereo partly drawn) [Ipratropium bromide] | – | – | 4 |
